Test results reported in publication PMC9531438, “Preclinical development of carrier-free prodrug nanoparticles for enhanced antitumor therapeutic potential with less toxicity” (Journal of Nanobiotechnology, 2022).

Assay: Pharmacokinetics after intravenous injection
Assay type: in vivo
Conditions: mice, i.v., 4 mg/kg based on DOX contents; blood, HPLC with fluorescence detector; WinNonlin
Protocol: The 6-week male BALB/c and BALB/c nu/nu mice were purchased from NaraBio (Gyeonggi-do, Republic of Korea). Mice were bred under pathogen-free conditions in the Korea Institute of Science and Technology (KIST). All experiments with animals were performed in compliance with the relevant laws and institutional guidelines of Institutional Animal Care and Use Committee (IACUC; approved number of 2020-123) in Korea Institute of Science and Technology (KIST). […] After treatment, blood samples were collected from mice by cardiac puncture after deep anesthesia at pre-determined times, followed by analysis with HPLC with fluorescence detector. The PK parameters including area under the curves (AUC), clearance (CL), volume of distribution (Vd) and half-life (t1/2) were calculated using a WinNonlin software. […] The fluorescence intensities in the tumor regions were quantified using a Living Image software (PerkinElmer, Waltham, MA, USA). The ex vivo NIRF imaging of collected major organs after 9 h of injection was also performed using IVIS Lumina Series III system. […] For this analysis, each tissue was cut into 8-μm sections using rotary microtome and analyzed via confocal laser scanning microscope (CLSM) equipped with 405 diode (405 nm) and HeNe-Red (633 nm) lasers.

Work on `COc1cccc2c1C(=O)c1c(O)c3c(c(O)c1C2=O)C[C@@](O)(C(=O)CO)C[C@@H]3O[C@H]1C[C@H](N)[C@H](O)[C@H](C)O1` [DOX, doxorubicin] yielded an AUCinf of 22910 ± 5460 ng·h/mL.
